The source of these data is ChEMBL document CHEMBL1124652, “Resolved 6,7,8,9-tetrahydro-N,N-dimethyl-3H-benz[e]indol-8-amine: central dopamine and serotonin receptor stimulating properties” (J Med Chem, 1989).

Chains of the proteins cited; added tags and fusions are not shown.
UniProt P61169, whole entry: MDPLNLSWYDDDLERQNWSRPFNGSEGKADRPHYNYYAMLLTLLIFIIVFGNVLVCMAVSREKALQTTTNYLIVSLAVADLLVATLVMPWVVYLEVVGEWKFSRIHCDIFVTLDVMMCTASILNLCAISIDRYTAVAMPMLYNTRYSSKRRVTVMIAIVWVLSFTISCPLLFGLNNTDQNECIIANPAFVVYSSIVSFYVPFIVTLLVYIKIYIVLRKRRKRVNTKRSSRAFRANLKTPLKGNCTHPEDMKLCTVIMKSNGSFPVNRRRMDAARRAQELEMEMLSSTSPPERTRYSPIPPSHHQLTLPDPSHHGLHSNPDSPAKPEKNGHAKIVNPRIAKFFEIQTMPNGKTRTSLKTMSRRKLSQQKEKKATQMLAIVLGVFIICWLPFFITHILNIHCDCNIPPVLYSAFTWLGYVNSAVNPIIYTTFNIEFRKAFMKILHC

Each structure is given as a SMILES string.

The target of the experiment is D(2) dopamine receptor (Rattus norvegicus, UniProt P61169). Put plainly: In vitro binding activity against dopamine receptor D2 from homogenized rat brain, using [3H]spiperone as the radioligand.
Turning to `CN(C)[C@H]1CCc2ccc3[nH]ccc3c2C1`, the IC50 (usually the concentration that inhibits the measured activity by half) came to 9510 nM.

For the molecule `CN(C)[C@@H]1CCc2ccc3[nH]ccc3c2C1`, the IC50 was 1050 nM.

Consider `CN(C)C1CCc2ccc3[nH]ccc3c2C1` (racemic), for which the IC50 turned out to be 1840 nM.
